Assay results reported in US20230322735A1, “AZETIDINYL TRYPTAMINES AND METHODS OF TREATING PSYCHIATRIC DISORDERS” (priority 2020, published 2023).

Amino acid sequences for entries named in this document (tags omitted).
UniProt P08908, whole entry: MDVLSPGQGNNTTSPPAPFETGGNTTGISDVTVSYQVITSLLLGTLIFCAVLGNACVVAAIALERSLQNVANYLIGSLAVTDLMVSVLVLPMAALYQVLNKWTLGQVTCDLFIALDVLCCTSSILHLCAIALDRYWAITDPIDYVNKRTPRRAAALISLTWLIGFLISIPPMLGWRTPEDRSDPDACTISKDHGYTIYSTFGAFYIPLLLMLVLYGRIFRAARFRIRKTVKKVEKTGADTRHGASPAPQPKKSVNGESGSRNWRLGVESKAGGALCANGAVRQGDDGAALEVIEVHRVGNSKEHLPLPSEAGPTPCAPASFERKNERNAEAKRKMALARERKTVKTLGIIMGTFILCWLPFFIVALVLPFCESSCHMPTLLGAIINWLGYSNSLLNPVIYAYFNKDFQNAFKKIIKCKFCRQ

Target: T1, 5-HT1A receptor (Homo sapiens, UniProt P08908)
T1 construct: host or cells: CHO cells
Experiment: FLIPR Ca2+ flux agonist assay at 5-HT1A (CHO cells)
Assay type: cell-based

## COc1ccc2[nH]cc(CCN(C)C)c2c1 [Compound 5-MeO-DMT, reference compound]
  EC50: 280 nM
